{"source": "ChEMBL document CHEMBL3525963", "about": "“Tissue distribution and elimination of [14C]apixaban in rats” (Drug Metab Dispos, 2011)", "type_in_all_cases": "ADME, organism-based", "set-up_in_all_cases": "dose 5 mg/kg, dosed compound name [14C]-apixaban, route oral", "settings_in_all_cases": "in vivo", "key": {"Adrenal gland": {"test_system": "Adrenal gland", "assay": "Biodistribution in pregnant Sprague-Dawley rat adrenal gland at 5 mg/kg, po administered as single dose measured after 0.5 hrs"}, "Rattus norvegicus": {"test_system": "Rattus norvegicus", "assay": "Biodistribution in pregnant Sprague-Dawley rat amnion at 5 mg/kg, po administered as single dose measured after 0.5 hrs"}, "Blood": {"test_system": "Blood", "assay": "Biodistribution in pregnant Sprague-Dawley rat blood at 5 mg/kg, po administered as single dose measured after 1 hr"}}, "data": [{"smiles": "COc1ccc(-n2nc(C(N)=O)c3c2C(=O)N(c2ccc(N4CCCC[14C]4=O)cc2)CC3)cc1", "values": [{"measurement": "Radiolabel recovery", "setting": "Adrenal gland", "value": 1.49, "unit": "ugequiv/g"}, {"measurement": "Radiolabel recovery", "setting": "Rattus norvegicus", "value": 1.45, "unit": "ugequiv/g"}, {"measurement": "Radiolabel recovery", "setting": "Blood", "value": 1.44, "unit": "ugequiv/g"}]}]}
